Measurements published in patent publication US20090186832A1 (priority 2008, published 2009).
Only a part of the results on these compounds is given; other tests are left out.

Conditions: plasma buprenorphine; 0.5 mg buprenorphine free base/kg; group2 dogs

Buprenorphine leucine carbamate
AUC (mean ngh/mL ± SD): 13.1 ± 3.5 ngh/mL | Cmax (mean ng/mL ± SD): 1.68 ± 0.56 ng/mL
